# According to PubChem BioAssay AID1224863 (Southern Research Institute, 2016):
# By UniProt entry, the sequences of proteins in these tests, tags left out. Chains listed by the source or under a name are the forms on record and can include a tag or linker.
# UniProt P13569, with tags, fused parts or gaps F508del: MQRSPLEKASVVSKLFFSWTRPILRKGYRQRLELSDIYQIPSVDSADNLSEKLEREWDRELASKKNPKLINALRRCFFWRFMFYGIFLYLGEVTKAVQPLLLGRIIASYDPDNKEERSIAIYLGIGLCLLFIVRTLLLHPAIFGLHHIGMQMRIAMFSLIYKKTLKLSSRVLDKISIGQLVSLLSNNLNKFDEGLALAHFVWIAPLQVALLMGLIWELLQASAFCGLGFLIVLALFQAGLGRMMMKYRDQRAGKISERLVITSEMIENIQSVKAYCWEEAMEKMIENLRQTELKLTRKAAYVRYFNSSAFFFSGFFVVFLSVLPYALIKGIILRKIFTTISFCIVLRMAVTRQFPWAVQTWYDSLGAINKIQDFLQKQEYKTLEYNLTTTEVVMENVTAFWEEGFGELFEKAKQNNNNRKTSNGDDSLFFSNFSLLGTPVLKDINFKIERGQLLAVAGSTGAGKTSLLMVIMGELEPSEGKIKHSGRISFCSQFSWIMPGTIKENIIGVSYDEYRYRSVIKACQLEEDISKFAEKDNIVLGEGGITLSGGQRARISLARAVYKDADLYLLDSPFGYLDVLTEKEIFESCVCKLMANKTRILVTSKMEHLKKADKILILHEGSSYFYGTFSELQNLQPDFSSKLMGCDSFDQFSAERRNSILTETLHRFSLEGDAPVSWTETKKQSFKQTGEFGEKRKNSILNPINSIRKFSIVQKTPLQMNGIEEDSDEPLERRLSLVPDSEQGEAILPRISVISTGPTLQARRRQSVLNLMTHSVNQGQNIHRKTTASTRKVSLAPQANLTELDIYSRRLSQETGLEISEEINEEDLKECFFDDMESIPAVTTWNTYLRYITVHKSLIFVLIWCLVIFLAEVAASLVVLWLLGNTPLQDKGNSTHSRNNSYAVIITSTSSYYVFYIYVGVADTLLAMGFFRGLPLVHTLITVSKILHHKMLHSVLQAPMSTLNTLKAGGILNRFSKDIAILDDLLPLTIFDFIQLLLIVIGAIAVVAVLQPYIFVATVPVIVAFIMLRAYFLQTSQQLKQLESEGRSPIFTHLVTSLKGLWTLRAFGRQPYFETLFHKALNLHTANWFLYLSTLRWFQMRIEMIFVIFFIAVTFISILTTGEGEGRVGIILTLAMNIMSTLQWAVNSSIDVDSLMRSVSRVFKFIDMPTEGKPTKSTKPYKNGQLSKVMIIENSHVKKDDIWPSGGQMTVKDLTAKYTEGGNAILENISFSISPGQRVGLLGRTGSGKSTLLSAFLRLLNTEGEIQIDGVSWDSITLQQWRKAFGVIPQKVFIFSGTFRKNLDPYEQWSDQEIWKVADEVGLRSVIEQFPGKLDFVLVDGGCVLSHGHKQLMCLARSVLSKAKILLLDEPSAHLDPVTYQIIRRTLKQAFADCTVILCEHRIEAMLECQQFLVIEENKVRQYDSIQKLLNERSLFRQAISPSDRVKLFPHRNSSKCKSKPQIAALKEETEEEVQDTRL
# Several values for one entry are separate records, joined by “and”; a condition that tells them apart may be missing. Equal entries are not always repeated. The whole screen tested about 10,000 compounds, of which about 15 (0.1%) were called active.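 Rule for the calls: active = highest signal at least 8 times the median of untreated cell-only control wells at some dose; inactive = the rest.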 Not all results are given here.
# What was measured:
# [1] = compounds raising F508del-CFTR protein level – cell-based, HeLa F508del-CFTR, immunofluorescence, viability, primary screen (AID 1224863); details: immunofluorescence total CFTR, 24 h, stronger effect = higher value; min viability: measured here: HeLa viability, alamarBlue, dose 20, library dosed in µg/mL unless noted; viability: measured here: primary viability 10 ug/mL, library dosed in µg/mL unless noted;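 for fold increase: total CFTR protein by anti-CFTR immunofluorescence in fixed cells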;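 for max fold increase: total CFTR protein by anti-CFTR immunofluorescence in fixed cells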
# [2] = biological target: Cystic fibrosis transmembrane conductance regulator (Homo sapiens) (UniProt P13569); experiment: as above; details: immunofluorescence total CFTR, 24 h; fold increase: measured here: primary screen 10 ug/mL, library dosed in µg/mL, stronger effect = higher value unless noted; max fold increase: dose 10, library dosed in µg/mL, stronger effect = higher value unless noted; outcome: library dosed in µg/mL unless noted
Compound,viability [1],fold increase [2],outcome [2],min viability [1],max fold increase [2]
CC(C)Cn1nnc(-c2ccc(Cl)cc2)n1,99%,1.4,inactive,–,–
O=C(O)c1cc(C2CC2)nc2onc(-c3ccco3)c12,109%,1.11,inactive,–,–
N#Cc1nc2c(S(=O)(=O)c3ccc(Cl)cc3)c(N)n(Cc3ccc(C(F)(F)F)cc3)c2nc1C#N,87%,0.86,inactive,–,–
Cc1cc(C)n2c(=S)n(CN(C)Cc3ccccc3Cl)nc2n1,97%,0.97,inactive,–,–
CC(NCC(O)c1ccccc1)c1ccccc1 (stereo not drawn),103%,1.06,inactive,–,–
CC(Cc1ccc(Cl)cc1)NC(=O)C1(C)CC1(Cl)Cl (stereo not drawn),94%,0.98,inactive,–,–
COc1ccc2c(COC(=O)c3ccc4c(c3)S(=O)(=O)N=C3CCCCCN34)cc(=O)oc2c1,83%,1.02,inactive,–,–
CCc1c(C)sc2nc(SCCO)n(CCOC)c(=O)c12,95%,1,inactive,–,–
CCOC(=O)C1=C(CC)Nc2ccccc2N=C1NC(=O)C12CC3CC(CC(Cl)(C3)C1)C2,85%,1.09,inactive,–,–
Cn1ccc(S(=O)(=O)N2CCN(C(=O)CCC(=O)c3cccs3)CC2)c1,103%,1.19,inactive,–,–
CCc1cc(OCCCCNC)ccc1Cl,104%,1.06,inactive,–,–
Cc1c(C(=O)CN2C(=O)NC3(CCOc4ccccc43)C2=O)sc2ccccc12 (stereo not drawn),115%,1.07,inactive,–,–
COC(=O)c1ccc(OCC(=O)c2ccc3c(c2)CCO3)c(OC)c1,97%,1.01,inactive,–,–
CC(CCc1ccco1)NC(=O)N1CCN(Cc2nc3scc(-c4cccs4)c3c(=O)[nH]2)CC1 (stereo not drawn),92%,0.93,inactive,–,–
c1ccc2c(c1)ncn2CN1CCN(Cc2csc3ccccc23)CC1,107%,1.18,inactive,–,–
Cc1cccc(CN2CCN(CN3C(=O)C(=O)N(C(C)C)C3=O)CC2)c1,95%,1.02,inactive,–,–
CN(C)S(=O)(=O)N1CCN(C(=O)Nc2cccc3c2CCCC3)CC1,102%,0.97,inactive,–,–
COCC(C)NC(=O)c1sccc1C (stereo not drawn),102%,0.9,inactive,–,–
CC(C)(C)OC(=O)N1CC=C(n2c(=O)n(CN3CCN(c4ccccc4)CC3)c3ccccc32)CC1,98%,1.06,inactive,–,–
COc1ccc(C)cc1-n1nnnc1SCC1CC1(Cl)Cl (stereo not drawn),86%,0.87,inactive,–,–
Cn1nnnc1SCc1ncc(-c2ccc(F)cc2)o1,94%,1.03,inactive,–,–
CN(C)S(=O)(=O)c1ccc(CN2C(=O)NC(C)(c3ccco3)C2=O)o1 (stereo not drawn),97%,0.98,inactive,–,–
COc1ccc(S(=O)(=O)Nc2ccc(N3CCCC3)cc2)cc1OC,84%,0.85,inactive,–,–
N#Cc1ccc(CS(=O)(=O)N2CCCCCCC2)cc1,95%,1.03,inactive,–,–
Nc1cnn(CCO)c1,92%,0.96,inactive,–,–

Compound,viability [1],fold increase [2],outcome [2],min viability [1],max fold increase [2]
CC(c1cc2ccccc2o1)N(C)Cc1noc(C(C)(C)C)n1 (stereo not drawn),89%,0.88,inactive,–,–
N#Cc1nncn1-c1ncnc2sc3c(c12)CCC3,95%,1.06,inactive,–,–
CCNc1nc(C)nc2sc(CC)cc12,84%,0.96,inactive,–,–
CCC(C)(C)NC(=O)CCNC(=O)/C=C/c1ccco1,80%,0.85,inactive,–,–
CC(C)Sc1nc2cc(Cl)ccc2c(=O)n1CC1CCCO1 (stereo not drawn),90%,0.87,inactive,–,–
CC(C)(C)N=C1NN=C(c2cccc(F)c2)CS1,75%,0.85,inactive,–,–
Clc1ccc(-n2nnnc2SCCCc2nc3ccccc3o2)cc1,84%,0.85,inactive,–,–
Cc1nn(-c2ccccc2)c2c1CC(C#N)(c1nc3ccccc3s1)C1CCCN21 (stereo not drawn),89%,1.29,inactive,–,–
O=S(=O)(NCCc1ccc2c(c1)OCCO2)c1ccc2c(c1)CCC2,95%,0.9,inactive,–,–
C=CCn1c(SC(C)c2nnnn2-c2ccccc2)nnc1-c1ccoc1C (stereo not drawn),93%,1.01,inactive,–,–
Cc1nc(N2CCC(NS(C)(=O)=O)CC2)c2c3c(sc2n1)CCC3,85%,0.99,inactive,–,–
CS(=O)(=O)CCC(=O)Nc1nc2c(s1)CCC2,92%,1.13,inactive,–,–
O=S(=O)(c1ccc(S(=O)(=O)N(Cc2ccc3c(c2)OCO3)C2CCCC2)cc1)N1CCCC1,98%,0.96,inactive,–,–
CNC(=O)CN(C)c1ncnc2sc3c(c12)CCCC3,94%,1.01,inactive,–,–
Nc1nccnc1C(=O)N1CCN(c2nccs2)CC1,79%,1.03,inactive,–,–
CC[C@H](C)[C@H]1O[C@]2(CC[C@@H]1C)C[C@@H]1C[C@@H](C/C=C(\C)[C@@H](O[C@H]3C[C@H](OC)[C@@H](O[C@H]4C[C@H](OC)[C@@H](O)[C@H](C)O4)[C@H](C)O3)[C@@H](C)/C=C/C=C3\CO[C@@H]4[C@H](O)C(C)=C[C@@H](C(=O)O1)[C@]34O)O2,"25% [measured here: primary viability 25 uM, at 25 µM, library dosed in µM] and 48% [measured here: primary viability 25 uM, at 25 µM, library dosed in µM]","0.61 [measured here: primary screen single dose 25 uM, at 25 µM, library dosed in µM, stronger effect = higher value] and 0.72 [measured here: primary screen single dose 25 uM, at 25 µM, library dosed in µM, stronger effect = higher value]",inactive [library dosed in µM],–,–
COCCN1C(=O)C(=O)/C(=C(/O)c2ccccc2)C1c1cccc(Oc2ccccc2)c1 (stereo not drawn),106%,0.99,inactive,–,–
Cc1cc(C(=O)Cn2nnn(-c3cccs3)c2=O)c(C)n1CCc1cccs1,91%,0.85,inactive,–,–
O=C(CSc1nc(O)cc(=O)n1C1CCCC1)NC12CC3CC(CC(C3)C1)C2,85%,0.96,inactive,–,–
CCSc1nnc(SC(C)c2ccc(F)cc2)s1 (stereo not drawn),77%,0.8,inactive,–,–
O=C(CC1CC2CCC1C2)N1CCN(c2cnccn2)CC1 (stereo not drawn),83%,1,inactive,–,–
O=C(CC1CC2CCC1C2)Nc1cc(NC(=O)c2ccc3c(c2)OCO3)ccc1F (stereo not drawn),78%,0.79,inactive,–,–
CCc1nc2ccccc2n1CCOc1ccc(Br)cc1,81%,0.89,inactive,–,–
COc1cc(F)c(S(=O)(=O)Nc2ccc3c(c2)OC2(CCCCC2)O3)cc1OC,85%,0.93,inactive,–,–
CCN(CC)S(=O)(=O)c1cc2c(cc1Br)NC(=O)CO2,92%,1.02,inactive,–,–

Compound,viability [1],fold increase [2],outcome [2],min viability [1],max fold increase [2]
CSCCSc1nnc(-c2ccccc2)n1-c1ccc(Cl)cc1,81%,0.92,inactive,–,–
C=CCn1c(C)cc(C(=O)COc2ccc3oc4c(c3c2)CCCC4)c1C,84%,0.97,inactive,–,–
N#CCSc1nc2sc3c(c2c(=O)n1C1CCCC1)CCCC3,80%,0.98,inactive,–,–
CCOC(=O)C1SC(SCc2cc(C(=O)OC)c(C)o2)=NC1=O (stereo not drawn),99%,1.01,inactive,–,–
CN1C(=O)C(=O)N(CCOc2ccc(Cl)cc2Br)C1=O,90%,0.98,inactive,–,–
Clc1ccc(-c2csc(NC3CC3)n2)cc1Cl,99%,0.91,inactive,–,–
CC(c1nc(C(C)(C)C)no1)N1CCN(c2ccccc2F)CC1 (stereo not drawn),87%,0.89,inactive,–,–
CC(=O)c1c(C)[nH]c(C(=O)C(C)N2CCN(C(=O)C3CC3)CC2)c1C (stereo not drawn),78%,0.82,inactive,–,–
CS(=O)(=O)N1CCN(c2ccc(Br)cc2[N+](=O)[O-])CC1,103%,0.92,inactive,–,–
Cc1cc(C(=O)OC(C)C(N)=O)c(C)n1CC(F)(F)F (stereo not drawn),88%,1.05,inactive,–,–
Cc1cc(CN2CCN(CCS(=O)c3ccccc3)CC2)on1 (stereo not drawn),90%,1.09,inactive,–,–
C=CCn1c(-c2cccnc2)nn(CN2CCc3ccccc3C2)c1=S,111%,1.12,inactive,–,–
CN1N=C(C(=O)Nc2ccc3c(c2)OC2(CCCC2)O3)CCC1=O,92%,0.97,inactive,–,–
Cc1cc(C)n2nc(SCC(=O)c3ccc(Br)cc3)nc2n1,76%,0.93,inactive,–,–
CC1CCc2c(sc3nc(-c4cccnc4)nc(N4CCNC(=O)CC4)c23)C1 (stereo not drawn),84%,0.94,inactive,–,–
COc1ccc(C23CC4CC(CC(C(=O)OC5CCOC5=O)(C4)C2)C3)cc1 (stereo not drawn),108%,1.12,inactive,–,–
Cc1ccc(-c2nc(-c3ccc(C(C)(C)C)cc3)c(C)s2)cc1,96%,1.12,inactive,–,–
N#CC1(c2nc3ccccc3s2)Cc2cc([N+](=O)[O-])ccc2N2CCCCC21 (stereo not drawn),88%,1.17,inactive,–,–
CN1CCN(S(=O)(=O)c2ccc(Sc3ccc(Br)cc3)nc2)CC1,79%,0.92,inactive,–,–
CCCNC(=O)C(C)NC(=O)Cc1c(C)nc2nc(N)nn2c1C (stereo not drawn),99%,1.14,inactive,–,–
Cc1nn2c(nc(NC3CCCN(C)C3)c3ccccc32)c1Cl (stereo not drawn),72%,2.03,–,"70.3% [measured here: HeLa viability, alamarBlue, dose 10, library dosed in µg/mL]","1.32 [dose 0.039, library dosed in µg/mL, stronger effect = higher value] (inactive)"
O=c1oc2ccccc2n1CN1CCCC(O)C1 (stereo not drawn),85%,0.95,inactive,–,–
O=[N+]([O-])c1cc2c(c(CSc3nnnn3-c3ccc(Cl)cc3)c1)OCOC2,91%,1.01,inactive,–,–
CN(Cc1nc2ccsc2c(=O)[nH]1)C(=O)CCc1nnc(-c2ccsc2)o1,87%,1.17,inactive,–,–
